This is an account of results in PubChem BioAssay AID1020 (Sanford-Burnham Center for Chemical Genomics, 2008).

Each structure is given as a SMILES string. The entries are a selection whose mix differs from that of the whole data set. Active and inactive are the calls of the source. No stated cut-off is given here; in the data, active means inhibition above about 50%; inactive means the rest.

For this assay, the system named is glucose-6-phosphate dehydrogenase [Leuconostoc mesenteroides]. Nature of the assay: L. mesenteroides G6PDH inhibitors, counter-screen for G6PDH-coupled screening assays, biochemical, Leuconostoc mesenteroides enzyme (AID 1020). To be noted: Purified L. mesenteroides G6PDH, diaphorase/resazurin coupled fluorescence, 45 min; at 5 µM; hits give high values.
Regarding `CN(C)C1(CNC(=O)c2ccc(S(C)(=O)=O)cc2)CCCCC1`, the inhibition was inactive: 6.9%.
`Cc1nn(-c2ccccc2)c2c1P(=O)(N1CCOCC1)N(C)C(c1ccccc1)=N2` (stereo not drawn): the inhibition is inactive: -6.1%.
`CC1CCC(C(C)C)C(OP(=O)(Nc2ccccn2)c2ccccc2)C1` (stereo not drawn): the inhibition was inactive: 12.7%.
As to `Cc1ccc(OCC(=O)OC2CN3CCC2CC3)cc1` (stereo not drawn), the inhibition was inactive: -17.9%.
For `O=P1(Nc2ccc(Br)cn2)COc2ccccc2OC1`, the inhibition is inactive: 13.7%.
Next, `O=P1(Nc2ncccn2)COc2ccccc2OC1`: inactive: 9.2%; `Clc1n[nH]nc1-c1nn[nH][15n]1`: inactive: -0.6%; `O=P1(Nc2ccccn2)COc2ccccc2OC1`: inactive: -1.4%.
Take `CC(C)/C=N\N=C(\N)N[N+](=O)[O-]`: the inhibition was inactive: 7.3%.
Take `CN(C(=O)Cc1ccc(Cl)c(Cl)c1)[C@@H]1CCCC[C@H]1N1CCCC1`: the inhibition is inactive: 15.9%.
With `Cc1cccc(OCC(=O)OC2CN3CCC2CC3)c1` (stereo not drawn), the inhibition was inactive: -16.5%.
Next, `COc1cc(C(=O)NCC2(N3CCOCC3)CCCCC2)cc(Cl)c1OC(C)C`: inactive: 0.2%.
Consider `COc1cc(C2NCCC3(OCCO3)C2(C)C)cc(OC)c1OC` (stereo not drawn), for which the inhibition is inactive: 7.1%.
Then `CCOP(=O)(Nc1cccc2ccccc12)OCC`, with inactive: 4.2%; and `Cc1ccc(NCCc2c([N+](=O)[O-])cc([N+](=O)[O-])cc2[N+](=O)[O-])cc1`, with inactive: -17.2%.
Then `CCOP1(=S)c2c(C)nn(CCC#N)c2N=C(c2ccccc2F)N1C` (stereo not drawn), with inactive: -8.3%; and `O=P(Nc1nccs1)(Oc1ccccc1)Oc1ccccc1`, with inactive: 6.3%; and `O=P(Nc1nccs1)(c1ccccc1)c1nc2ccccc2s1` (stereo not drawn), with inactive: -7.7%.
Then `CCOP1(=S)c2c(C)nn(CCC#N)c2N=C(c2ccc(F)cc2)N1C` (stereo not drawn), with inactive: 12.9%; and `O=[N+]([O-])c1ccc2c(c1)nnn2O`, with inactive: 1%; and `Cc1ccc2nc3c(c(C)c2c1)CC(C(Cl)Cl)S3` (stereo not drawn), with inactive: -24.9%.
Take `CC(C)NC(=O)NP(=O)(Oc1ccccc1)Oc1ccccc1`: the inhibition is inactive: 12%.
In the case of `CCN(CC)C(=S)SC(NC=O)C(Cl)(Cl)Cl` (stereo not drawn), the inhibition was inactive: 2.8%.
For `O=[N+]([O-])c1cc([N+](=O)[O-])c(-c2ccn[nH]2)s1`, the inhibition is inactive: -1.2%.
Next, `ClCCSc1nnc(-c2cccnc2)o1`: inactive: 8.4%; `COc1ccc2nc(NP(=O)(c3ccccc3)c3ccccc3)sc2c1`: inactive: -2.7%.
Then `Cc1c2c(nc3ccccc13)SC(C(Cl)Cl)C2` (stereo not drawn), with inactive: -9.9%; and `O=C(OC1CN2CCC1CC2)C12CC3CC(CC(C3)C1)C2` (stereo not drawn), with inactive: 1.8%.
Consider `Cc1cc(=O)[nH]c(N[N+](=O)[O-])n1`, for which the inhibition is inactive: 4.4%.
For the compound `COc1ccc(N/C(=N/P(=O)(N2CCOCC2)N2CCOCC2)N2CCOCC2)cc1`, the inhibition is inactive: 4.4%.
For the compound `O=C(COc1ccccc1)OC1CN2CCC1CC2` (stereo not drawn), the inhibition was inactive: -4.7%.
Turning to `COP1(=S)c2c(C)nn(CCC#N)c2N=C(c2ccc(F)cc2)N1C` (stereo not drawn), the inhibition was inactive: 20.2%.
Next, `CCC(C)N(CC(C)C)C(=S)SC(NC(C)=O)C(Cl)(Cl)Cl` (stereo not drawn): inactive: 8.5%; `Cc1cc(SC(NC(=O)c2ccccc2)C(Cl)(Cl)Cl)nc(C(C)C)n1` (stereo not drawn): inactive: 2.8%.
Next, `O=P(Nc1ccccn1)(c1cccc2ccccc12)c1cccc2ccccc12`: inactive: 8.4%; `Cc1cc(SC(NC=O)C(Cl)(Cl)Cl)ncn1` (stereo not drawn): inactive: 12.7%; `O=[N+]([O-])c1ncn(CCn2ncnc2[N+](=O)[O-])n1`: inactive: 6.4%.
On to `Cc1ccc(NP(=O)(Oc2ccccc2)Oc2ccccc2)nc1`, for which the inhibition was inactive: -0.9%.
Then `CCc1nc2c(n1)c1c(non1O)c1c2no[n+]1[O-]`, with inactive: 16.2%; and `O=[N+]([O-])c1cc([N+](=O)[O-])c(CCNc2ccccc2)c([N+](=O)[O-])c1`, with inactive: 7.1%; and `O=[N+]([O-])c1cccc2n[nH]nc12`, with inactive: 8.4%.
Turning to `CC(=O)N1C2C3N(C(C)=O)C1C1N(C(C)=O)C(C(N1C(C)=O)N3C(C)=O)N2C(C)=O`, the inhibition is inactive: 7.4%.
Then `COc1ccc(C2=NCC(CBr)S2)cc1` (stereo not drawn), with inactive: -5.8%; and `CC(C)=N/N=C(\N)N[N+](=O)[O-]`, with inactive: 10.4%; and `CN(C)C(=O)OCCc1n(C)cc[n+]1C`, with inactive: -2.2%.
On to `CCN(/C(=N/P(=O)(N1CCOCC1)N1CCOCC1)N1CCOCC1)c1ccc(OC)cc1`, for which the inhibition is inactive: -4.1%.
As for `CN1CCCC(OC(=O)C(c2ccccc2)c2ccccc2)C1` (stereo not drawn), the inhibition is inactive: 2.8%.
Consider `Clc1ccc(Cl)c(NC2=NCC(CBr)S2)c1` (stereo not drawn), for which the inhibition was inactive: 5.5%.
Take `COc1ccccc1OP(=O)(Nc1ccc(C)cn1)Oc1ccccc1OC`: the inhibition is inactive: 5.1%.
As for `Cc1ccc(N/C(=N/P(=O)(N2CCOCC2)N2CCOCC2)N2CCOCC2)cc1`, the inhibition was inactive: 1.4%.
Next, `NC(=O)c1cc([N+](=O)[O-])cc([N+](=O)[O-])c1N`: inactive: -3.1%.
Then `Oc1ccccc1CNc1ccccn1`, with inactive: 0.8%; and `O=C(NC(Sc1ccncn1)C(Cl)(Cl)Cl)c1ccccc1` (stereo not drawn), with inactive: 5.5%.
Next, `Cc1c2non([O-])c-2c(C)[n+](=O)[n+]1[O-]`: inactive: 6.9%; `CC(C)CC(=O)NC(Sc1ccc(Cl)cc1)C(Cl)(Cl)Cl` (stereo not drawn): inactive: 2.4%; `Cc1cc(SC(NC(=O)c2ccc(F)cc2)C(Cl)(Cl)Cl)ncn1` (stereo not drawn): inactive: -2.2%.
Consider `CCOP(=O)(Nc1ccccc1)OCC`, for which the inhibition was inactive: 2.9%.
On to `CCN(N=Nc1nonc1N)c1nonc1N`, for which the inhibition was inactive: 5.9%.
Then `c1ccc(-c2nn[nH]n2)c(-c2nn[nH]n2)c1`, with inactive: 1.6%.
Then `CCOC(=O)NC(Sc1ccccc1)C(Cl)(Cl)Cl` (stereo not drawn), with inactive: 2.9%; and `CCNC(=S)/N=C(\N)N[N+](=O)[O-]`, with inactive: 0.2%; and `O=C(NC1CCS(=O)(=O)C1)NP(=S)(Oc1ccccc1)Oc1ccccc1` (stereo not drawn), with inactive: 18%.
Next, `O=c1c2cc([N+](=O)[O-])ccc2[nH]c2c([N+](=O)[O-])cc([N+](=O)[O-])cc12`: inactive: 13.5%; `CCC(=O)N1C2C3N(C(=O)CC)C1C1N(C(=O)CC)C(C(N1C(=O)CC)N3C(=O)CC)N2C(=O)CC`: inactive: 5.4%.
In the case of `COC(=O)c1cc2c(s1)N=C(c1ccccc1)N(C)P2(=O)N1CCOCC1` (stereo not drawn), the inhibition was inactive: 5.7%.
Next, `Cc1ccc(OP(=O)(Nc2ccccn2)Oc2ccc(C)cc2)cc1`: inactive: 3.4%; `CC(=O)NC(SC(=S)N(CC(C)C)CC(C)C)C(Cl)(Cl)Cl` (stereo not drawn): inactive: 8%.
Next, `CC(C)(C)C(=O)NC(Sc1ccccc1)C(Cl)(Cl)Cl` (stereo not drawn): inactive: 2.1%; `O=P1(Nc2nc3ccc(Cl)cc3s2)COc2ccccc2O1` (stereo not drawn): inactive: 2.2%.
Next, `CCOc1ccc(C2=NCC(CBr)S2)cc1` (stereo not drawn): inactive: 3.7%; `CC(=O)Nc1ccc(Oc2c([N+](=O)[O-])cc([N+](=O)[O-])cc2[N+](=O)[O-])cc1`: inactive: 6.6%; `c1nnnn1CCn1cnnn1`: inactive: -1.8%.
Turning to `CC(C)C(=O)NC(Sc1ccccc1)C(Cl)(Cl)Cl` (stereo not drawn), the inhibition is inactive: -2.2%.
Take `O=P(Nc1nccs1)(c1ccccc1)c1ccccc1`: the inhibition is inactive: 1%.
Next, `O=P(Nc1ccccn1)(c1ccc(Br)cc1)c1ccc(Br)cc1`: inactive: 16.1%.
For `O=C(OC1CN2CCC1CC2)c1cccc(Cl)c1` (stereo not drawn), the inhibition was inactive: 10.6%.
Then `C(Cc1nn[nH]n1)Cc1nn[nH]n1`, with inactive: 6.6%; and `CC(=O)NC(SC(=S)N(C)C)C(Cl)(Cl)Cl` (stereo not drawn), with inactive: -1.6%.

Broadly, the inhibition is the change of the read-out against control, counted positive when it falls.
